# Experiment: Plasma pharmacokinetics of 14C-LLNL-02 after single intravenous dose (AMS)
# Conditions: male guinea pigs
# [1] = single intravenous 5 mg/kg, 5 mg/kg
# [2] = single intravenous 20 mg/kg, 20 mg/kg
structure (smiles),measurement,setting,value
C[C@@H](CN1CCCc2ccccc2C1)NC(=O)/C=N/O [LLNL-02],AUC0-t,single intravenous 1 mg/kg,3880 ng·h/mL
same,AUC∞,single intravenous 1 mg/kg,7200 ng·h/mL
same,Cl (area),single intravenous 1 mg/kg,2.7962 mL/min/kg
same,T½ elim.,single intravenous 1 mg/kg,21.92 h
same,Vd (area),single intravenous 1 mg/kg,4.40228 L/kg
same,AUC∞,single intravenous 5 mg/kg,31500 ng·h/mL
same,AUC0-t,[1],20500 ng·h/mL
same,Cl (area),[1],2.977 mL/min/kg
same,T½ elim.,[1],17.3 h
same,AUC0-t,[2],51700 ng·h/mL
same,AUC∞,[2],87800 ng·h/mL
same,Cl (area),[2],5.185 mL/min/kg
same,T½ elim.,[2],18.9 h
same,Vd (area),[2],5.3419 L/kg

# — US11186548B2 (priority 2017, dated 2021)
